Earlier results on one substance are cited in article PMC5600712 (ACS chemical biology, 2017).

For orientation: pKi means −log10 of the Ki, conventionally taken in molar units.

In this data set the target is HDAC6. The following applies: class IIb HDAC6-HC toxin complex.

pKi: −log10 of the molar value.

HC toxin: the pKi was 6.46.
